# Binding of CDR-mutated scFvs to a peptide of the spike HR2 region

Source: Engelhart et al. 2022 (doi:10.1038/s41597-022-01779-4), MIT Lincoln Laboratory and A-Alpha Bio; data file from the FLAb repository.

Binding partner: SARS-CoV-2 spike HR2 peptide, sequence PDVDLGDISGINAS.

Each scFv is VL, a 15-residue (Gly4Ser)3 linker, VH, as in the parent Ab-91, and differs from it in the CDRs of the heavy chain only.
VL: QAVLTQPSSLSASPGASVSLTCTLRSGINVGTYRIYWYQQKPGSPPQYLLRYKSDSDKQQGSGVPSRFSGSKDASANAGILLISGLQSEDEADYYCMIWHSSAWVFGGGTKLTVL
VH: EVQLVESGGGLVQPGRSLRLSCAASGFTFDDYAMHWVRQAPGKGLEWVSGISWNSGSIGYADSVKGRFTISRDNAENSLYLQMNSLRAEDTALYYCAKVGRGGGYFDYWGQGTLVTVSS

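The starting antibody came from a phage panning campaign against this peptide. In library AAYL51, one, two or three CDR residues were substituted; doubles and triples were drawn at random. AlphaSeq pools MATa yeast showing the antibodies with MATalpha yeast showing the peptide. Binding brings cells together so that they mate, and sequencing counts the barcode pairs among the diploids. The ratio of observed to expected reads was calibrated, replicate by replicate, on BCL2-family standards whose Kd was known from biolayer interferometry. Each pool was mated in three replicate cultures.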

Variants are written as CDR1, CDR2 and CDR3 of the heavy chain (limits as in the source). Parent: GFTFDDYAMH, GISWNSGSIGYADSVK, VGRGGGYFDY. Affinities are written as log10 Kd with Kd in nM; a lower number is a better binder. The mean shown is taken over the replicates in which the pair was detected. "not detected" means that the variant was in the library but no mating with the target was seen in any replicate; the authors take this as a sign of poor binding, and no number exists. Empty control strains, which show no peptide, gave a signal in 21% of pairings with library AAYL51; the median was 4.54 and 95% of these signals were weaker than 3.26. No background was subtracted.

CDR-H1 | CDR-H2 | CDR-H3 | mean, log10 nM | seen in
GFTFDDYAMH | GISWNSGSIGYVDSVK | VGRGGGYFDS | 0.99 | 3/3
GFTFDDYAMH | GLSWNSGFIGYADSTK | VGRGGGYFDY | 4.75 | 2/3
GFTFDDYAIH | GISWNDGSIGYADSVK | VGRLGGYFDY | not detected | 0/3
GFTFDDYAMH | GISWNSGSIGSASSVK | VGRGWGYFDY | 5.25 | 2/3
GFTFDDYAMH | GCSWNSGSIHYADSVK | VGFGGGYFDY | 3.98 | 2/3
GFTFDDYAVH | GISWNSGSIGYSDSVK | VGRGGGYFFY | not detected | 0/3
GFTFDDYAMH | YISWNSGSIGYADSTK | VMRGGGYFDY | not detected | 0/3
KFTFDDYAMH | GISWNSGSCGYAPSVK | VGRGGGYFDY | 2.81 | 3/3
GFTFDDYAMT | GISWNSGKIGYADSVK | VGRGGGYFGY | 4.95 | 1/3
GFTFDMYGMH | GISWNSGSIGYADSVK | VGRFGGYFDY | 0.42 | 3/3
GFTFDCYAMH | GISWNMGSIGYADSVK | VGRYGGYFDY | 3.35 | 1/3
GFTFDDYAMH | GGSMNSGSIGYADSVK | VGRGGGYFDY | not detected | 0/3
GFTFDDYAMH | MISWNSGSIGYADSVK | IGRGGGYFDY | 4.83 | 2/3
GFTFIDYGMH | GISWNSGSIGPADSVK | VGRGGGYFDY | not detected | 0/3
GFTFDDYAMH | WISWNSGSIGYADSVE | VGRGGGGFDY | 5.49 | 3/3
PFTFSDYAMH | GIVWNSGSIGYADSVK | VGRGGGYFDY | not detected | 0/3
GFQFDDFAMH | GISWNSGSIGGADSVK | VGRGGGYFDY | 3.43 | 1/3
GFTFDDGAMH | RISWNSGSIGYADSVK | VGRGGGYFQY | 3.74 | 1/3
GETFDDYAMH | GISWNDGSIGYADSVK | VGRGGGYFHY | 3.64 | 1/3
GFTHDDYAMH | GISWNSGSQGYARSVK | VGRGGGYFDY | not detected | 0/3
GFTFDDYAMH | FISWNSGSIGYADSVK | VGRGGRCFDY | not detected | 0/3
GFTFDDYAMH | GFSWFSGSISYADSVK | VGRGGGYFDY | not detected | 0/3
GFTFDDYAMH | HISWNSGSIGWASSVK | VGRGGGYFDY | 4.92 | 1/3
GPTFDDYAPH | GISWNSGSTGYADSVK | VGRGGGYFDY | 4.27 | 2/3
GFTFDDEAMH | GISWNSFSDGYADSVK | VGRGGGYFDY | not detected | 0/3
GFTFDDYAMH | GISWNSGSIGYADGVK | TGRGGGRFDY | 4.36 | 1/3
GFHFDDYAMH | GISWNSGSIGYADMVK | VGRGGGYDDY | not detected | 0/3
EFTFDDYAMH | GISVNSGSIGYADSVK | VGRGGGYFDC | 5.40 | 3/3
GFTFDDYAMH | GISWNSGHIGYADSKK | VGSGGGYFDY | not detected | 0/3
GFTFDDYAMH | GISWNSGSIGYRTSVK | VKRGGGYFDY | 2.27 | 3/3
GFTFDDYAMH | GISWKSGSIGNADSMK | VGRGGGYFDY | not detected | 0/3
GFLFDDYAMH | GISWNSGSIGYADTVK | VGRGGGYFFY | 4.64 | 3/3
GFTFDDYAMH | GISWNSGSDGYADGVK | VGRGGGYFDI | 1.38 | 3/3
GFIFDDYAMH | GISWNSGSIGYADSVK | VGAGGGYFDL | 3.98 | 3/3
GFTFDDYAMH | GPSWNSGSIGYADSIK | VGRGGGYFDY | not detected | 0/3
GFTFDDYAMH | GISWNSGSIGYADSVK | VQKIGGYFDY | 1.93 | 3/3
GFTFDDYAMH | GISWNSGDIGYYDSVK | VGRGGGNFDY | not detected | 0/3
GFTFDDYAMH | GISWNSGSIGPADSEK | VGRGGGYFDV | 5.00 | 3/3
GFTYDDYAMH | GISWNCGSIGYADSVK | VGRGDGYFDY | 5.53 | 1/3
GFTFDDYAMH | PISWNSGSVGYADAVK | VGRGGGYFDY | not detected | 0/3
GFTFDDYAMH | GIHWNSGSIGLADSVK | VGRSGGYFDY | 5.05 | 1/3
GFTFDDYAMH | GISFNSGCIGYADSVK | VGRGGGYCDY | 2.93 | 3/3
GFTFDDYAMH | GISWCSGSIGYADSVK | VGRGGGYFDK | not detected | 0/3
GFKFDDPAMH | GISWNSGSIGYADSVK | VGRGGGYFDA | 2.73 | 3/3
GFTFLDYAMH | QISWNSGSIGYADSVK | VGRGGGYFDH | 4.88 | 1/3
GFTFDDYAMH | GISWNSGSIGYADSVK | QGREGGYFDY | 3.65 | 1/3
GFTFDDYAMT | GIYWNSGSIGYADSVK | VGRGGGVFDY | 4.31 | 1/3
GFTFDDYAMH | GISWNSGSWGYADSVK | VGRYGGYFDH | 4.04 | 3/3
GFTFDDHAMH | GISWNSVSIGYADSVK | VGRGGGYFVY | not detected | 0/3
GFTFGDYAMH | GISWNSGSIGYHDSVK | VGRDGGYFDY | 2.70 | 3/3
GKTFDYYAMH | GISWNSGSIGYADSSK | VGRGGGYFDY | not detected | 0/3
MFTFDDYAMH | GISWNSGSIGYADDWK | VGRGGGYFDY | 5.41 | 1/3
GFTFCDYAMH | GIEWNSGSIGYADSVK | VGRGGGYFCY | 5.32 | 3/3
GHIRDDYAMH | GISWNSGSIGYADSVK | VGRGGGYFDY | 4.82 | 1/3
GFTFDDYAMH | GISWFIWSIGYADSVK | VGRGGGYFDY | not detected | 0/3
GFTFDDYAMH | GISWNSKSIGAADSVK | VGRGGGYFGY | not detected | 0/3
GCTFDDYAMH | GISWNSGSIGYADSVK | YGRYGGYFDY | not detected | 0/3
GFTFDDYAMH | GISWNLGSIGYADSVK | KGRGPGYFDY | 4.64 | 1/3
GFTFCDYAMH | GISWNSGSIGYADSVK | VGRGGGYFYY | 5.57 | 3/3
GFTFDWYAMH | GISWDSGSIGYADQVK | VGRGGGYFDY | 2.30 | 3/3
GFTFDDYAMH | GISWNSGSIGYADSCK | VHRGGSYFDY | 5.66 | 1/3
GFTFDDYAMH | GISWNSESIGYRDSVK | VSRGGGYFDY | not detected | 0/3
GFTFDAYCMH | GISWNSGSIGYADSVK | VGRGGGYFDQ | 4.26 | 1/3
GFTFDDYAMH | GISWNLGSEGYAVSVK | VGRGGGYFDY | not detected | 0/3
GFTYDDYAMH | GISWPSGSIGYADSVK | VGRGGAYFDY | 4.03 | 1/3
GFTFDDYQCH | GISWNSGSIGYADSVK | VGRGGGYKDY | 4.64 | 3/3
GFTFDDYAMH | GISWNSLSIGYADLVK | VGRGCGYFDY | 4.56 | 3/3
GFTFDDYPMH | GVSWNSGSIGYADSVK | VGRGGGYFRY | 5.15 | 2/3
GFTFDDYAMH | VISWNSGSIGYADSIK | VGRVGGYFDY | 4.82 | 1/3
GFTFDDYAMH | GISWNRGSIGYADSVK | VGRGGMYADY | 5.35 | 1/3
GFTFDDYAMH | GIPWNSGSIGYADSVK | VGRGGGYFSY | not detected | 0/3
GFTFDDYAMH | GISWNSGSIGQADSVK | VGRGEGYFDY | 1.11 | 3/3
GFTFDDYAMH | GYTWNSGSIGTADSVK | VGRGGGYFDY | not detected | 0/3
GFTFKDYAMH | GISWNSGSIGSADSVK | VGRGGGYDDY | 3.53 | 1/3
GFTFDDYAMH | GISWNSGSIGNADDVK | YGRGGGYFDY | not detected | 0/3
GFTFDFYAMH | GGSWNSGSIGYADDVK | VGRGGGYFDY | 4.10 | 1/3

Again, the first 9 entries without any signal:

CDR-H1 | CDR-H2 | CDR-H3 | mean, log10 nM | seen in
GFTFDDYAIH | GISWNDGSIGYADSVK | VGRLGGYFDY | not detected | 0/3
GFTFDDYAVH | GISWNSGSIGYSDSVK | VGRGGGYFFY | not detected | 0/3
GFTFDDYAMH | YISWNSGSIGYADSTK | VMRGGGYFDY | not detected | 0/3
GFTFDDYAMH | GGSMNSGSIGYADSVK | VGRGGGYFDY | not detected | 0/3
GFTFIDYGMH | GISWNSGSIGPADSVK | VGRGGGYFDY | not detected | 0/3
PFTFSDYAMH | GIVWNSGSIGYADSVK | VGRGGGYFDY | not detected | 0/3
GFTHDDYAMH | GISWNSGSQGYARSVK | VGRGGGYFDY | not detected | 0/3
GFTFDDYAMH | FISWNSGSIGYADSVK | VGRGGRCFDY | not detected | 0/3
GFTFDDYAMH | GFSWFSGSISYADSVK | VGRGGGYFDY | not detected | 0/3

In this assay the parent's reference entry averaged 1.86; its copy inside this library read 0.88.